Assay results from publication PMC10893053, “Mechanistic Insight in Permeability through Different Membranes in the Presence of Pharmaceutical Excipients: A Case of Model Hydrophobic Carbamazepine” (Pharmaceutics, 2024).

Assay: Free CBZ fraction estimation
Assay type: physicochemical

Free fraction of CBZ (ffree) (F127 1.33 mmol·L-1): 0.647
Free fraction of CBZ (ffree) (F127 2.30 mmol·L-1): 0.350
Free fraction of CBZ (ffree) (SBE-β-CD 6.89 mmol·L-1): 0.288
Free fraction of CBZ (ffree) (SBE-β-CD 13.78 mmol·L-1): 0.168
Free fraction of CBZ (ffree) (SBE-β-CD 20.67 mmol·L-1): 0.119
Free fraction of CBZ (ffree) (no excipient (0 mmol·L-1)): 1
Compound: NC(=O)N1c2ccccc2C=Cc2ccccc21 [CBZ, carbamazepine]
